Experimental data taken from ChEMBL document CHEMBL1136740, “New active series of growth hormone secretagogues” (J Med Chem, 2003).

Experiments:
Rattus norvegicus = experiment: Ratio of GH release stimulated by 300 ug/kg of compound to that of GH release stimulated by 300 ug/kg of hexarelin in infant rat (sc injection); assay type: functional
Summary of the method: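 Male 10-day-old Sprague-Dawley pups, about 25 g, eight per group. Dosed sc at 300 µg/kg, with solvent as DMSO at final 1:300 dilution. Killed by decapitation 15 min later; trunk-blood plasma GH measured by RIA against the NIDDK rat standard, in ng/mL. Response compared with hexarelin at the same dose.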

[1] = Stimulating GH secretion in dogs after oral administration at dose of 1 mg/kg

GH peak [1] [µg/L]	Compound	Ratio (Rattus norvegicus)
0.5	CC(C)(N)C(=O)N[C@H](Cc1c[nH]c2ccccc12)C(=O)N[C@H](Cc1c[nH]c2ccccc12)NC(=O)C1CCCCN1 (stereo partly specified)	1.34
5.5	CNC(C)(C)C(=O)N[C@H](Cc1c[nH]c2ccccc12)C(=O)N(C)[C@H](Cc1c[nH]c2ccccc12)NC(C)=O	1.45
0.4	CCNC(=O)N[C@@H](Cc1c[nH]c2ccccc12)NC(=O)[C@@H](Cc1c[nH]c2ccccc12)NC(=O)C(C)(C)N	1.4
